System: skin
Assay: Affymetrix microarray of skin, DBP-4 hr and analogs vs. untreated; gene selection by log-2 fold change, Wilcoxon, Kendall tau (Tables 8, 9)
Assay type: in vivo, mouse
Details: skin gene expression, DBP-4 hr vs. untreated; gene (probe) named in the table row; Yes = among genes selected by log-2 fold change

Compound: CCCCOC(=O)c1ccccc1C(=O)OCCCC [DBP, dibutylphthalate]
- ≧2-Fold change: No
